Measurements published in PMC4515320.

Key:
[1] = target: Tumorous imaginal disc 1 (Tid1), human (human (endogenous in Jurkat and Jcam)); experiment: proximity ligation; in situ PLA (DuoLink) on fixed, permeabilised Jcam cells (Lck-deficient) with primary antibodies to CRIF1 and Tid1; spots counted per cell
[2] = target: Tumorous imaginal disc 1 (Tid1), human (human (endogenous in Jurkat and Jcam)); experiment: proximity ligation; in situ PLA (DuoLink) on fixed, permeabilised Jurkat cells (Lck-expressing) with primary antibodies to CRIF1 and Tid1; spots counted per cell

PLA spots (CRIF1-Tid1 complexes) per cell [1]: 9.2 per cell
PLA spots (CRIF1-Tid1 complexes) per cell [2]: 5.3 per cell
Substance: CR6-interacting factor 1 (CRIF1), human (from UniProt Q8TAE8 1-222) (natural protein)
